Results from US9433608B2 (priority 2013, dated 2016).

Test system: 12 mm right basal ganglia infarct (acute lacunar infarct)
Parameters: species or system human
Details: in vivo

CC12CC3CC(C)(C1)CC(N)(C3)C2 [memantine, 3,5-dimethyladamantan-1-amine]
clinical course on memantine alone: presents with a right sided leg weakness
